Experiments:
[1] = molecular target: recombinant LBD of wildtype AR (wtAR) (Rattus norvegicus, UniProt P15207); test: biochemical
wtPR = wtPR (Homo sapiens, UniProt P06401); details: read-out: wtPR IC50
[2] = Metabolic stability in human liver microsomes (phase I and II); type: in vitro ADME
[3] = Metabolic stability in rat liver microsomes (phase I and II); type: in vitro ADME

Chains of the proteins cited; added tags and fusions are not shown. Lines headed by an entry give the natural chain unless they say otherwise; changes in a name come on top. Residues count along the entry.
UniProt P15207, 643-902: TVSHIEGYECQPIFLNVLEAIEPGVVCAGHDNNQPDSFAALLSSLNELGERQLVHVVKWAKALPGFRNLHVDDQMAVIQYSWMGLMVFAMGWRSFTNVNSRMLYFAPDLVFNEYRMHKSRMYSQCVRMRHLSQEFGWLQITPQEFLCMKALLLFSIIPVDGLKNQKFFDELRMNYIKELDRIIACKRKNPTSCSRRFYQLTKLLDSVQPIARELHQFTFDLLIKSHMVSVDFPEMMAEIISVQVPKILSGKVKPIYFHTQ
UniProt P06401: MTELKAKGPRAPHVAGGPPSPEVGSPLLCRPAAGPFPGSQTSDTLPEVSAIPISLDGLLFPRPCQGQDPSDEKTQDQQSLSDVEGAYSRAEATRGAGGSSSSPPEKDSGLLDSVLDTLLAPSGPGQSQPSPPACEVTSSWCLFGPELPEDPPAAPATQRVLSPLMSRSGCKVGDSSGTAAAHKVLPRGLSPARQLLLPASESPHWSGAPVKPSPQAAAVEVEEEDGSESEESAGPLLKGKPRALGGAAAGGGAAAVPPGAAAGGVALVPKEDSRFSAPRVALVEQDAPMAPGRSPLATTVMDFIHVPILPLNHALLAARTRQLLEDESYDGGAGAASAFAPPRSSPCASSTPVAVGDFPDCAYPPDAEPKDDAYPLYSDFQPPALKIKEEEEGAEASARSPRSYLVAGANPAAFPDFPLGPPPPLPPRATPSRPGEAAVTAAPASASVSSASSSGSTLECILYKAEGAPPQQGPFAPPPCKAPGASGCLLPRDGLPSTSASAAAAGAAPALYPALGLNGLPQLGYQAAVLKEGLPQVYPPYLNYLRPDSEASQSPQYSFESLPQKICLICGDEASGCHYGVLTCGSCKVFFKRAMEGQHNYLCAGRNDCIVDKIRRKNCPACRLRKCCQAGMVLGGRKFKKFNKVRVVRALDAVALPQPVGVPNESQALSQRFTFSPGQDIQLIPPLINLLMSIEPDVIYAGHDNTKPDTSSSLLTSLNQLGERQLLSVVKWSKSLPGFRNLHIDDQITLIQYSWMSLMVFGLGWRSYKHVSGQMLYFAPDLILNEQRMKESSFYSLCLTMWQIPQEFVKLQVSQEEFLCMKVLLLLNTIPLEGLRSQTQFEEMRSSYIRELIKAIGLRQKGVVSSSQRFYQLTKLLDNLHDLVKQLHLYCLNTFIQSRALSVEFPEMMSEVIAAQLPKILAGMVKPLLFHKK

| SMILES | Ki [1] [µM] | further results |
| --- | --- | --- |
| C[C@](O)(Cn1cc(C#CCCO)cn1)C(=O)Nc1ccc(C#N)c(C(F)(F)F)c1 [Compound 16r, (S)—N-(4-Cyano-3-(trifluoromethyl)phenyl)-2-hydroxy-3-(4-(4-hydroxybut-1-yn-1-yl)-1H-pyrazol-1-yl)-2-methylpropanamide] | > 10 | – |
| CC(=O)Nc1cnn(C[C@](C)(O)C(=O)Nc2ccc(C#N)c(C(F)(F)F)c2)c1 [Compound 16v, (S)-3-(4-Acetamido-1H-pyrazol-1-yl)-N-(4-cyano-3-(trifluoromethyl)phenyl)-2-hydroxy-2-methylpropanamide] | > 10 | – |
| C[C@](O)(Cn1cc(NC(=O)CCl)cn1)C(=O)Nc1ccc(C#N)c(C(F)(F)F)c1 [Compound 16w, (S)-3-(4-(2-Chloroacetamido)-1H-pyrazol-1-yl)-N-(4-cyano-3-(trifluoromethyl)phenyl)-2-hydroxy-2-methylpropanamide] | > 10 | – |
| C[C@](O)(Cn1cc(F)cn1)C(=O)Nc1cnc(C#N)c(C(F)(F)F)c1 [Compound 21a] | – | IC50 (wtPR): 235 nM; HLM T1/2 ([2]; cofactors for phases I and II): >120 min; half-life at 1 µM ([2]; human, microsomes, pH 7.5): > 120 min; RLM T1/2 ([3]; cofactors for phases I and II): >120 min; half-life at 1 µM ([3]; rat, microsomes, pH 7.5): > 120 min |
| C[C@](O)(Cn1cc(F)cn1)C(=O)Nc1ccc(C(N)=O)nc1 [Compound 21g, (S)-5-(3-(4-Fluoro-1H-pyrazol-1-yl)-2-hydroxy-2-methylpropanamido)picolinamide] | > 10 | – |
| C[C@](O)(Cn1cc(F)cn1)C(=O)Nc1ccc2ncncc2c1 [Compound 21h, (S)-3-(4-Fluoro-1H-pyrazol-1-yl)-2-hydroxy-2-methyl-N-(quinazolin-6-yl)propanamide] | > 10 | – |
